Assay results as given in PubChem BioAssay AID602310 (National Center for Advancing Translational Sciences (NCATS), 2012).
This is a selection; strong and weak results do not stand in their true shares. Active and inactive are the calls of the source. The call rests on the fitted dose curve; in most records, active means well fitted curve in the direction sought with a large enough effect; inconclusive means small, poorly fitted or top-dose-only effect; inactive means flat fitted curve, though single readings scatter.
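Further: hits raise eYFP signal because A3G escapes Vif-driven loss; nearly all actives have a fitted effect of over 60% in size.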
On the % scale 0 is the no-effect control and ±100 the full control effect.

Amino acid sequences for entries named in this document (tags omitted). A change or cut given only in a name is not applied to a line headed by its entry.
UniProt Q9HC16: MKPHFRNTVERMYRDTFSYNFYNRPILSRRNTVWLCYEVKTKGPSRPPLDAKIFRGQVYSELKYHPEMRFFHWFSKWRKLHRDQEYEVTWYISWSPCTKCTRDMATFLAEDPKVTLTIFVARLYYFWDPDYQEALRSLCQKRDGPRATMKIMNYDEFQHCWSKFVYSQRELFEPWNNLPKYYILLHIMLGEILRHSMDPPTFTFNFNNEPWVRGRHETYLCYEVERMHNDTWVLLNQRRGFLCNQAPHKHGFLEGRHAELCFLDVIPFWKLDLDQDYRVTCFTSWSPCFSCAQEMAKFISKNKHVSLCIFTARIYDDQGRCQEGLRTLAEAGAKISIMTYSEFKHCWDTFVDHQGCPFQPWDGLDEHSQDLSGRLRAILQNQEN

Each compound was assayed against DNA dC->dU-editing enzyme APOBEC-3G (Homo sapiens) (UniProt Q9HC16) (assay: qHTS for Inhibitors of Vif-A3G Interactions: qHTS). Details: HeLa A3G-eYFP + Vif (tagged APOBEC3G with the HIV-1 protein that degrades it), YFP fluorescence, overnight; at 46.1 µM (top of the series).
Description: The recent discovery and characterization of host restriction factors, which provide a potent defense to invading retroviruses, has provided new targets for antiviral drug development. APOBEC3G (A3G) and APOBEC3F (A3F) are potent cytidine deaminases that block HIV-1 replication; HIV-1 expresses the Vif protein, which counteracts A3G and A3F by binding to them and inducing their proteasomal degradation. The Vif-A3G and Vif-A3F interactions provide two potential targets for development of small molecules which can interfere with the ability of Vif to degrade A3G or A3F. […] To identify inhibitors that can interfere with Vif mediated degradation of A3G and A3F, we have developed Hela cell lines that stably express A3G or A3F tagged with eYFP at the C-terminal end (A3G-eYFP or A3F-eYFP, respectively) and Vif. In the absence of an inhibitor, Vif induces degradation of A3G-eYFP and A3F-eYFP, and the cells are not fluorescent. In the presence of an inhibitor, it is expected that Vif will be unable to degrade A3G-eYFP and/or A3F-eYFP, resulting in an increase in yellow fluorescence. In this assays Vif A3G was screened against the Molecular Library Small Molecule Repository (MLSMR). NIH Chemical Genomics Center [NCGC] NIH Molecular Libraries Probe Centers Network [MLPCN] MLPCN Grant: MH093245 Assay Submitter (PI): Vinay Pathak, National Cancer Institute
5 uL of 700 cells/well of A3G-YFP cells are dispensed into black, clear bottom plates. The plates are incubated overnight at 37 deg C. 23 nL of compounds are added by pintool. The plates are incubated overnight at 37 deg C and then read on the TTP Acumen (Ex 488/ Em 500-530).
In the case of `Cc1cc(SC(NC=O)C(Cl)(Cl)Cl)ncn1` (centres undefined), the activity, negative = active is reported as inactive: 0.309%. With `O=P(Nc1ccccn1)(c1cccc2ccccc12)c1cccc2ccccc12` the activity, negative = active was inactive: -2.19%. `O=[As](O)(c1ccc(O)cc1)c1ccccc1O` was tested, and the activity, negative = active was inactive: -1.18%. For `C[As](=O)(O)c1cccc(C(=O)O)c1`, the activity, negative = active was inactive: 2.12%. For `COc1cc(C(=O)NCC2(N3CCOCC3)CCCCC2)ccc1OCC(C)C`, the activity, negative = active was inactive: -8.75%. For `O=[N+]([O-])c1ccc(-c2cc([N+](=O)[O-])c(O)c([N+](=O)[O-])c2)cc1`, the activity, negative = active was inactive: 0.063%. For `Cc1ccc2nc3c(c(C)c2c1)CC(C(Cl)Cl)S3` (centres undefined), the activity, negative = active was inactive: 2.5%. For `Cc1ccc(OP(=O)(Nc2ccc([N+](=O)[O-])cn2)Oc2ccc(C)cc2)cc1`, the activity, negative = active was inactive: 1.59%. For `ClCCN(CCCl)c1ccc(CC2C=CC=C2)cc1`, the activity, negative = active was inactive: 0.932%. For `CC(C)c1ccc(OP(=O)(Nc2ccccn2)Oc2ccccc2F)cc1` (centres undefined), the activity, negative = active was inactive: 4.28%. With `COC(=O)C1(C)COP(=O)(N2CCCCCC2)OC1` (centres undefined) the activity, negative = active was inactive: -2.08%. For `O=Cc1ccc(NCCCl)cc1`, the activity, negative = active was inactive: 2.68%. `ClCCSc1nnc(-c2cccnc2)o1` was tested, and the activity, negative = active was inactive: -2.38%. For `O=C(OC1CN2CCC1CC2)c1cccc2[nH]cnc12` (centres undefined), the activity, negative = active was inactive: 0.599%. `CCN(CC)C(=S)SC(NC=O)C(Cl)(Cl)Cl` (centres undefined) was tested, and the activity, negative = active was inactive: -5.68%. `CC(C)NC(=O)NP(=O)(Oc1ccccc1)Oc1ccccc1` was tested, and the activity, negative = active was inactive: -3.69%. `O=[N+]([O-])c1cc([N+](=O)[O-])c(-c2ccn[nH]2)s1` was tested, and the activity, negative = active was inactive: -15%. In the case of `O=C(OC1CN2CCC1CC2)C12CC3CC(CC(C3)C1)C2` (centres undefined), the activity, negative = active is reported as inactive: 1.76%. `Cc1cc(=O)[nH]c(N[N+](=O)[O-])n1` was tested, and the activity, negative = active was inactive: -4.72%. With `Cc1c2c(nc3ccccc13)SC(C(Cl)Cl)C2` (centres undefined) the activity, negative = active was inactive: -5.86%. In the case of `COc1ccc2nc(NP(=O)(c3ccccc3)c3ccccc3)sc2c1`, the activity, negative = active is reported as inactive: -5.6%. For `COc1cc(I)ccc1[As](=O)(O)O`, the activity, negative = active was inactive: -4.15%. For `O=P1(N(CCCl)CCCl)Nc2ccccc2N1`, the activity, negative = active was inactive: 2.05%. `O=P1(N(CCCl)CCCl)OCCCN1CCCl` (centres undefined) was tested, and the activity, negative = active was inactive: 1.34%. In the case of `COc1ccc(N/C(=N/P(=O)(N2CCOCC2)N2CCOCC2)N2CCOCC2)cc1`, the activity, negative = active is reported as inactive: 3.88%. In the case of `O=[N+]([O-])c1cc(Oc2ccc([N+](=O)[O-])cc2C(F)(F)F)cc([N+](=O)[O-])c1`, the activity, negative = active is reported as inactive: -5.96%. For `NC(=O)c1cc([N+](=O)[O-])cc([N+](=O)[O-])c1N`, the activity, negative = active was inactive: 3.53%. `CN(C(=O)Cc1ccc(Cl)c(Cl)c1)[C@H]1CCCC[C@H]1N1CCCC1` was tested, and the activity, negative = active was inactive: 0.529%. With `Cc1ccc(N/C(=N/P(=O)(N2CCOCC2)N2CCOCC2)N2CCOCC2)cc1` the activity, negative = active was inactive: 2.13%. `COc1ccccc1OP(=O)(Nc1ccc(C)cn1)Oc1ccccc1OC` was tested, and the activity, negative = active was inactive: -1.91%. For `Cc1ccc(OP(=O)(Nc2nccs2)Oc2ccc(C)cc2)cc1`, the activity, negative = active was inactive: -2.06%. With `Clc1ccc(Cl)c(NC2=NCC(CBr)S2)c1` (centres undefined) the activity, negative = active was inactive: -2.2%. `CN1CCCC(OC(=O)C(c2ccccc2)c2ccccc2)C1` (centres undefined) was tested, and the activity, negative = active was inactive: 4.95%. `CC(C)CC(=O)NC(Sc1ccc(Cl)cc1)C(Cl)(Cl)Cl` (centres undefined) was tested, and the activity, negative = active was inactive: 0.817%. With `Nc1cc(N)c2nonc2c1[N+](=O)[O-]` the activity, negative = active was inactive: 1.02%. For `Oc1ccccc1CNc1ccccn1`, the activity, negative = active was inactive: -0.0563%. With `O=C(NC(Sc1ccncn1)C(Cl)(Cl)Cl)c1ccccc1` (centres undefined) the activity, negative = active was inactive: -0.375%. `O=[N+]([O-])C1C(O)C(O)C([N+](=O)[O-])C(O)C1O` (centres undefined) was tested, and the activity, negative = active was inactive: -2.36%. `O=C(O)c1ccccc1[As](=O)(O)O` was tested, and the activity, negative = active was inactive: 0.4%. `CC(=O)Nc1ccc([As](=O)(O)O)cc1` was tested, and the activity, negative = active was inactive: 0.0661%. With `CCCC1OP(N)(=O)OCC1CC` (centres undefined) the activity, negative = active was inactive: -2.65%. For `CN(C)P(=O)(N(C)C)n1c(Nc2ccccc2)nnc1-c1ccccc1`, the activity, negative = active was inactive: -5.03%. In the case of `O=P(Nc1nc2ccc(Cl)cc2s1)(c1ccccc1)c1ccccc1`, the activity, negative = active is reported as inactive: -3.72%. For `CCOP(=O)(Nc1ccccc1)OCC`, the activity, negative = active was inactive: -0.0192%. For `Cc1cc(SC(NC(=O)c2ccc(F)cc2)C(Cl)(Cl)Cl)ncn1` (centres undefined), the activity, negative = active was inactive: -1.8%. In the case of `CN(C(=O)Cc1ccc(Cl)c(Cl)c1)[C@H]1CCCC[C@@H]1N1CCCC1`, the activity, negative = active is reported as inactive: 1.28%. `Cc1ccc(NP(=O)(Oc2ccccc2F)Oc2ccccc2F)nc1` was tested, and the activity, negative = active was inactive: 1.15%. With `Nc1c(O)cc([N+](=O)[O-])cc1[N+](=O)[O-]` the activity, negative = active was inactive: -0.455%. `CCN(N=Nc1nonc1N)c1nonc1N` was tested, and the activity, negative = active was inactive: 2.41%. For `Nc1cccc2ccc([As](=O)(O)O)cc12`, the activity, negative = active was inactive: 0.579%. `O=P1(N(CCCl)CCCl)OCCCS1` (centres undefined) was tested, and the activity, negative = active was inactive: -1.41%. For `Cc1cc(C=O)ccc1N(CCCl)CCCl`, the activity, negative = active was inactive: -2.67%. In the case of `O=C(Nc1cc([As](=O)(O)O)ccc1O)c1ccccc1`, the activity, negative = active is reported as inactive: -6.36%. `O=P(/N=c1/nc(-c2ccccc2)n(-c2ccccc2)s1)(Nc1ccccc1)Nc1ccccc1` was tested, and the activity, negative = active was inactive: -1.7%. In the case of `CC(C)(C)C(=O)NC(Sc1ccncn1)C(Cl)(Cl)Cl` (centres undefined), the activity, negative = active is reported as inactive: 0.583%. `O=[N+]([O-])c1ncn(CCn2ncnc2[N+](=O)[O-])n1` was tested, and the activity, negative = active was inactive: 3.27%. For `O=[N+]([O-])c1cccc(NC2=NCC(CBr)S2)c1` (centres undefined), the activity, negative = active was inactive: 2.82%. In the case of `COC(=O)C1(C)COP(=O)(Nc2ccccc2)OC1` (centres undefined), the activity, negative = active is reported as inactive: -1.35%. For `O=C(O)CNc1ccc([As](=O)(O)O)cc1`, the activity, negative = active was inactive: -3.4%.
